Measurements published in the NIST ThermoML archive (doi:10.1016/j.fluid.2016.02.009).

Conditions: Liquid, Vibrating tube method

CCCCOCCCC [dibutyl ether]
mass density [kg/m3]
Conditions	283.15 K	288.15 K	293.15 K	298.15 K	303.15 K	308.15 K	318.15 K	323.15 K	328.15 K	333.15 K
100 kPa	777	772.71	768.41	764.09	759.76	755.41	746.7	742.29	737.85	733.4
5000 kPa	781.24	777.03	772.85	768.6	764.4	760.14	751.63	747.39	743.06	738.78
10000 kPa	785.22	781.07	777.07	772.95	768.85	764.73	756.5	752.4	748.22	744.06
15000 kPa	789.01	785	781.04	777.05	773.07	769.04	761.07	757.08	753.05	749.04
20000 kPa	792.62	788.61	784.83	780.93	777.07	773.17	765.43	761.57	757.64	753.72
25000 kPa	796.12	792.26	788.51	784.66	780.91	777.08	769.53	765.77	761.95	758.2
30000 kPa	799.48	795.67	792.02	788.29	784.58	780.86	773.46	769.82	766.06	762.39
35000 kPa	802.7	799.01	795.4	791.72	788.11	784.45	777.24	773.67	770.02	766.45
40000 kPa	805.84	802.2	798.65	795.05	791.5	787.91	780.87	777.34	773.78	770.3
45000 kPa	808.84	805.31	801.84	798.27	794.77	791.25	784.34	780.89	777.42	773.98
50000 kPa	811.78	808.25	804.88	801.34	797.96	794.48	787.7	784.31	780.92	777.5
55000 kPa	814.68	811.16	807.8	804.38	801.03	797.62	790.93	787.61	784.25	780.96
60000 kPa	817.42	814.04	810.68	807.34	804.04	800.63	794.06	790.8	787.5	784.27
65000 kPa	820.1	816.76	813.46	810.16	806.89	803.58	797.14	793.92	790.65	787.49
